The values below come from article PMC8615095.

Broadly, the EC50 is the concentration giving half of the maximal effect. A lower EC50 goes with greater potency.

For the experiment, the target named is membrane-bound IgE-Fc (IgE-Fc-B-cell receptor: 3xFLAG-Cε2-Cε3-Cε4-EMPD-transmembrane-intracellular domain). In words: flow cytometry on cells; IgG (omalizumab 10-0.01 nM, quilizumab 100-0.1 nM) on Ramos-Fcε cells induced 48 h with 1 µg/mL doxycycline, uninduced cells and empty-vector cells, 30 min on ice; detected with anti-human-IgG-PE. Background: In flow cytometry, cells or beads pass a laser one at a time.

“omalizumab (Xolair), full-length IgG (antibody)” came in with an EC50 of 1 nM.
